## OPERA 2.9 data: properties

Source: data files of OPERA 2.9 (Mansouri et al.), github.com/kmansouri/OPERA.

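These are experimental values that the OPERA curators gathered from public databases to train and test their QSAR models. A listed value is a point estimate from one report or more. Method, purity and exact conditions of the single measurements are not given. The measured form (salt, isomer or mixture) is not always the one drawn. Unmarked limits or estimates from the upstream databases cannot be ruled out.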

Melting points are in °C.
The boiling point refers to atmospheric pressure (760 mmHg), by the definition of the set.
logP is the log10 of the octanol-water partition coefficient; higher is more lipophilic.
Solubility in water is on a log10 molar scale (set defined at 25 °C).
Vapor pressure is log10 of mmHg; the set covers 15 to 30 °C, mostly 20 to 25 °C.
fu is the fraction unbound in human plasma, from 0 to 1.
Intrinsic clearance (human, µL/min per 10^6 hepatocytes): higher is faster turnover, and 0 stands for none detected.
"–" marks a cell with nothing listed here.

| structure (SMILES) | name | melting point (°C) | bp (°C) | log Kow | water solubility (log10 mol/L) | vapor pressure (log10 mmHg) | plasma fu | Clint (µL/min/10^6 cells) |
|---|---|---|---|---|---|---|---|---|
| C=C(C)C(=O)OCC(F)(F)F | 2,2,2-Trifluoroethyl methacrylate | -46.6 | – | – | -2.268 | 1.285 | – | – |
| CCCCC(CC)CNCC(CC)CCCC (stereo not drawn) | 2-Ethyl-N-(2-ethylhexyl)-1-hexanamine | – | – | 7.3 | -3.73 | – | – | – |
| CC(CCl)OP(=O)(OCC(CCl)(CCl)COP(=O)(OC(C)CCl)OC(C)CCl)OC(C)CCl (stereo not drawn) | – | 50.5 | 231.3 | 4 | -5.204 | – | – | – |
| N#CSCSc1nc2ccccc2s1 | 2-(Thiocyanomethylthio)benzothiazole | -10 | 191 | – | – | -5.046 | – | – |
| Cc1ccc(C(=O)Nc2ccc(S(=O)(=O)[O-])cc2)cc1N.[Na+] | – | 274 | – | -2.71 | – | – | – | – |
| CC(=O)Nc1c(I)c(NC(C)=O)c(I)c(C(=O)O)c1I | Diatrizoic acid | – | – | 3.3 | – | – | 0.975 | – |
| O=S(=O)([O-])CC(O)CCl.[Na+] (stereo not drawn) | Sodium 3-chloro-2-hydroxypropylsulfonate | 244.7 | – | -3.81 | – | – | – | – |
| Oc1cc(Cl)cc(Br)c1 | 3-Bromo-5-chlorophenol | – | – | 3.2 | – | -4.425 | – | – |
| COc1cccc(C(C)=O)c1 | 3-Methoxyacetophenone | – | – | – | -1.725 | -1.477 | – | – |
| CCN(CC)CC.Cc1ccc(S(=O)(=O)O)cc1 | – | – | – | -2.9 | – | -4.736 | – | – |
| CC(C)C(=O)Nc1nc(-c2ccc(O)cc2O)cs1 | – | 244.7 | – | 2.066 | -4.066 | -10.78 | – | – |
| C=C[Si](C=C)(C=C)C=C | Silane, tetraethenyl- | – | – | 4.3 | -4.273 | 1.194 | – | – |
| COC(=O)c1ccc(C(=O)OC)c([N+](=O)[O-])c1 | Dimethyl nitroterephthalate | – | – | 1.78 | -2.836 | – | – | – |
| CC(C(=O)O)c1ccc(C(=O)c2cccs2)cc1 (stereo not drawn) | Suprofen | – | – | 2.2 | -3.79 | – | – | – |
| CC(CC(C)(C)C#N)c1ccccc1 (stereo not drawn) | 2,2-Dimethyl-4-phenylpentanenitrile | – | – | 3.34 | -3.235 | -2.25 | – | – |
| CCCCc1ccc(Nc2ccc(Nc3ccc(CCCC)cc3)c3c2C(=O)c2c(Nc4ccc(CCCC)cc4)ccc(Nc4ccc(CCCC)cc4)c2C3=O)cc1 | – | 178 | – | – | -8.153 | -8.197 | – | – |
| N[C@@H]1CONC1=O | Cycloserine | – | – | -0.9 | 0.934 | – | 0.8 | – |
| NCCN1CCNCC1 | 1-(2-Aminoethyl)piperazine | – | – | -1.48 | – | -1.413 | – | – |
| N#CC(/N=C/c1ccccc1[O-])=C(C#N)/N=C/c1ccccc1[O-].[Ni+2] | – | 356 | – | – | -7.766 | – | – | – |
| CC(=O)CC(=O)Nc1ccc(NC(=O)CC(C)=O)cc1 | Butanamide, N,N'-1,4-phenylenebis[3-oxo- | 178 | – | -0.14 | – | -10.73 | – | – |
| CCCN(CCC)CCc1cccc2c1CC(=O)N2 | Ropinirole | – | – | – | -2.868 | – | 0.6 | – |
| Cc1cc(C)c(Cl)c(C)c1Cl | 2,4-DICHLOROMESITYLENE | 59 | 243 | – | – | – | – | – |
| CN1CCC[C@@H]1Cc1c[nH]c2ccc(CCS(=O)(=O)c3ccccc3)cc12 | Eletriptan | – | – | 3.9 | -5.511 | – | – | – |
| CCCCCCCCN(CCO)CCO | N,N-Bis(2-hydroxyethyl)octylamine | – | – | – | -2.191 | -4.114 | – | – |
| CCCOC(=O)NCCCN(C)C.Cl | Propamocarb hydrochloride | – | – | – | – | – | 0.8426 | 5.81 |
| CCC(C)c1cc(N=Nc2ccc([N+](=O)[O-])cc2)cc(C(C)CC)c1O (stereo not drawn) | – | – | – | 6.4 | -7.852 | – | – | – |
| COS(=O)(=O)[O-].Cc1ccc(N(C)/N=C/C2=[N+](C)c3ccccc3C2(C)C)cc1 | – | – | – | -1.1 | – | -6.76 | – | – |
| Nc1ccc2c(S(=O)(=O)O)cc(S(=O)(=O)O)cc2c1 | 1,3-Naphthalenedisulfonic acid, 6-amino- | – | – | -1.6 | -0.122 | – | – | – |
| CNS(=O)(=O)c1cc(OC)c(N)cc1C | Benzenesulfonamide, 4-amino-5-methoxy-N,2-dimethyl- | 135 | – | – | -2.577 | – | – | – |
| CCC(C)C1CCCCC1=O (stereo not drawn) | 2-sec-Butylcyclohexan-1-one | – | 221 | – | – | 0.668 | – | – |
| CC(=O)OCC(=O)C1=CC[C@@H]2[C@H]3CCC4=CC(=O)C=C[C@@]4(C)[C@@H]3[C@H](OC(C)=O)C[C@@]12C | – | 243.5 | – | 2.8 | -5.029 | -9.639 | – | – |
| CC1CC(C)(c2ccccc2)CO1 (stereo not drawn) | Rhubafuran | – | – | – | -2.433 | -1.727 | – | – |
| Cc1ncc(CN)c(N)n1 | 2-Methyl-4-amino-5-aminomethylpyrimidine | – | – | -2.27 | – | -3.955 | – | – |
| CC(CNC1CCCCC1)OC(=O)c1ccccc1 (stereo not drawn) | Hexylcaine | – | – | 3.9 | -4.43 | – | – | – |
| CCCCCCCCn1sc(Cl)c(Cl)c1=O | 4,5-Dichloro-2-octyl-3(2H)-isothiazolone | – | – | 4.5 | – | -5.131 | – | – |
| N#CC(=C1CCCCC1)c1ccccc1 | 2-cyclohexylidene-2-phenylacetonitrile | -32.85 | – | 4 | -4.42 | -3.491 | – | – |

Extract of 2 entries:

structure (SMILES)	name	melting point (°C)	bp (°C)	log Kow	water solubility (log10 mol/L)	vapor pressure (log10 mmHg)	plasma fu	Clint (µL/min/10^6 cells)
CCCOC(=O)NCCCN(C)C.Cl	Propamocarb hydrochloride	–	–	–	–	–	0.8426	5.81
COc1cccc(C(C)=O)c1	3-Methoxyacetophenone	–	–	–	-1.725	-1.477	–	–